Reference: CN111253486A
Values joined by “and” are separate entries in the source; they are usually repeats but may differ in a detail not shown here. Equal values may be shown once.

By UniProt entry, the sequences of proteins in these tests, tags left out. Residues count along the entry.
UniProt Q15116, 25-167 limits assumed: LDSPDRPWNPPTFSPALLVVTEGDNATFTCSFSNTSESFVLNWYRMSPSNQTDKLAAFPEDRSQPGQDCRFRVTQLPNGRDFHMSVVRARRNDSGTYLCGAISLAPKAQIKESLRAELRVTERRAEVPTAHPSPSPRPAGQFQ
UniProt Q15116, 25-170: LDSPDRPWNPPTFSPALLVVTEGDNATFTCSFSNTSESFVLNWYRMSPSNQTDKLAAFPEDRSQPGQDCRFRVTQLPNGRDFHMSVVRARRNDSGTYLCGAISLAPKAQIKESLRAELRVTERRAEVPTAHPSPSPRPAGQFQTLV
UniProt Q15116, 25-288: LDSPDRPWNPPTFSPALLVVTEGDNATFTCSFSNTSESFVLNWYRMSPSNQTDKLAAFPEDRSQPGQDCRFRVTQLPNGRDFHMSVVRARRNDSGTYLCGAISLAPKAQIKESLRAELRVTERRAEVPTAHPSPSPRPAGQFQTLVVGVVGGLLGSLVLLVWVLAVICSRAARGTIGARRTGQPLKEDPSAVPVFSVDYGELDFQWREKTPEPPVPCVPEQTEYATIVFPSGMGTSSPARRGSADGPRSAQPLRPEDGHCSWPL

Columns and labels:
[1] = target: Tag-PD-1 (CISBIO HTRF PD-1/PD-L1 binding assay kit 63ADK000CPLPEB) (UniProt Q15116); assay: HTRF competition, blocking of PD-1/PD-L1 binding
[2] = target: human PD-1-his (recombinant human PD-1 extracellular domain with C-terminal polyhistidine tag) (human) (UniProt Q15116); assay: SPR (Biacore 8K), antibody captured, antigen injected
[3] = target: Tag-PD-1 (CISBIO HTRF PD-1/PD-L1 binding assay kit 63ADK000CPLPEB) (UniProt Q15116); assay: HTRF competition, blocking of PD-1/PD-L1 binding; relative inhibition
[4] = target: human PD-1 expressed on cells (CHO-K1 cells expressing human PD-1) (human) (UniProt Q15116); assay: cell-based or functional assay

| IC50 [1] | Kd [2] | koff [2] | kon [2] | 最小I% [3] | EC50 calculated from the Jurkat-NFAT luciferase reporter assay [4] | Substance |
| --- | --- | --- | --- | --- | --- | --- |
| 3.79 nM | 4 nM | 0.00152 s⁻¹ | 381000 M⁻¹ s⁻¹ | 0.715% and 12.7% |  | nivolumab analog (Chempartners), reference anti-PD-1 antibody |
|  | 1.65 nM | 0.00474 s⁻¹ | 2.88e+06 M⁻¹ s⁻¹ |  | 0.12 nM | pembrolizumab analog (CrownBio), reference anti-PD-1 antibody |
